Experimental data reported in US12285437B2 (The Research Foundation for The State University of new York, priority 2019, dated 2025).

Conditions: 25° C.

Mol. % of DMA 8 (pH 6.5, 9 hr): 24 Mol. % | Mol. % of DMI 7 formed (pH 6.5, 9 hr): 11 Mol. % | Mol. % of Decomposition Products (pH 6.5, 9 hr): 15 Mol. % | Mol. % of Dox Released (pH 6.5, 9 hr): 50 Mol. % | Mol. % of DMA 8 (pH 6.5, 24 hr): 5 Mol. % | Mol. % of DMI 7 formed (pH 6.5, 24 hr): 13 Mol. % | Mol. % of Decomposition Products (pH 6.5, 24 hr): 15 Mol. % | Mol. % of Dox Released (pH 6.5, 24 hr): 67 Mol. % | Mol. % of DMA 8 (pH 6.8, 0.2 hr): 79 Mol. % | Mol. % of DMI 7 formed (pH 6.8, 0.2 hr): 8 Mol. % | Mol. % of Decomposition Products (pH 6.8, 0.2 hr): 9 Mol. % | Mol. % of Dox Released (pH 6.8, 0.2 hr): 4 Mol. % | Mol. % of DMA 8 (pH 6.8, 15 hr): 31 Mol. % | Mol. % of DMI 7 formed (pH 6.8, 15 hr): 18 Mol. % | Mol. % of Decomposition Products (pH 6.8, 15 hr): 9 Mol. % | Mol. % of Dox Released (pH 6.8, 15 hr): 42 Mol. % | Mol. % of DMA 8 (pH 6.8, 20 hr): 26 Mol. % | Mol. % of DMI 7 formed (pH 6.8, 20 hr): 21 Mol. % | Mol. % of Decomposition Products (pH 6.8, 20 hr): 10 Mol. % | Mol. % of Dox Released (pH 6.8, 20 hr): 43 Mol. % | Mol. % of DMA 8 (pH 6.8, 22 hr): 22 Mol. % | Mol. % of DMI 7 formed (pH 6.8, 22 hr): 21 Mol. % | Mol. % of Decomposition Products (pH 6.8, 22 hr): 10 Mol. % | Mol. % of Dox Released (pH 6.8, 22 hr): 47 Mol. % | Mol. % of DMA 8 (pH 6.8, 24 hr): 16 Mol. % | Mol. % of DMI 7 formed (pH 6.8, 24 hr): 25 Mol. % | Mol. % of Decomposition Products (pH 6.8, 24 hr): 10 Mol. % | Mol. % of Dox Released (pH 6.8, 24 hr): 49 Mol. % | Mol. % of DMA 8 (pH 6.8, 48 hr): 6 Mol. % | Mol. % of DMI 7 formed (pH 6.8, 48 hr): 22 Mol. % | Mol. % of Decomposition Products (pH 6.8, 48 hr): 18 Mol. % | Mol. % of Dox Released (pH 6.8, 48 hr): 54 Mol. % | Mol. % of DMA 8 (pH 7.0, 0.5 hr): 75 Mol. % | Mol. % of DMI 7 formed (pH 7.0, 0.5 hr): 7 Mol. % | Mol. % of Decomposition Products (pH 7.0, 0.5 hr): 10 Mol. % | Mol. % of Dox Released (pH 7.0, 0.5 hr): 8 Mol. % | Mol. % of DMA 8 (pH 7.0, 4 hr): 71 Mol. % | Mol. % of DMI 7 formed (pH 7.0, 4 hr): 11 Mol. % | Mol. % of Decomposition Products (pH 7.0, 4 hr): 10 Mol. % | Mol. % of Dox Released (pH 7.0, 4 hr): 8 Mol. % | Mol. % of DMA 8 (pH 7.0, 21 hr): 31 Mol. % | Mol. % of DMI 7 formed (pH 7.0, 21 hr): 24 Mol. % | Mol. % of Decomposition Products (pH 7.0, 21 hr): 11 Mol. % | Mol. % of Dox Released (pH 7.0, 21 hr): 34 Mol. % | Mol. % of DMA 8 (pH 7.0, 25 hr): 26 Mol. % | Mol. % of DMI 7 formed (pH 7.0, 25 hr): 24 Mol. % | Mol. % of Decomposition Products (pH 7.0, 25 hr): 15 Mol. % | Mol. % of Dox Released (pH 7.0, 25 hr): 35 Mol. % | Mol. % of DMA 8 (pH 7.0, 30 hr): 22 Mol. % | Mol. % of DMI 7 formed (pH 7.0, 30 hr): 25 Mol. % | Mol. % of Decomposition Products (pH 7.0, 30 hr): 15 Mol. % | Mol. % of Dox Released (pH 7.0, 30 hr): 38 Mol. % | Mol. % of DMA 8 (pH 7.0, 48 hr): 12 Mol. % | Mol. % of DMI 7 formed (pH 7.0, 48 hr): 30 Mol. % | Mol. % of Decomposition Products (pH 7.0, 48 hr): 15 Mol. % | Mol. % of Dox Released (pH 7.0, 48 hr): 43 Mol. % | Mol. % of DMA 8 (pH 7.4, 0 hr): 94 Mol. % | Mol. % of DMI 7 formed (pH 7.4, 0 hr): 0 Mol. % | Mol. % of Decomposition Products (pH 7.4, 0 hr): 6 Mol. % | Mol. % of Dox Released (pH 7.4, 0 hr): 0 Mol. % | Mol. % of DMA 8 (pH 7.4, 24 hr): 45 Mol. % | Mol. % of DMI 7 formed (pH 7.4, 24 hr): 23 Mol. % | Mol. % of Decomposition Products (pH 7.4, 24 hr): 13 Mol. % | Mol. % of Dox Released (pH 7.4, 24 hr): 19 Mol. % | Mol. % of DMA 8 (pH 7.4, 44 hr): 29 Mol. % | Mol. % of DMI 7 formed (pH 7.4, 44 hr): 29 Mol. % | Mol. % of Decomposition Products (pH 7.4, 44 hr): 14 Mol. % | Mol. % of Dox Released (pH 7.4, 44 hr): 28 Mol. % | Mol. % of DMA 8 (pH 7.4, 69 hr): 18 Mol. % | Mol. % of DMI 7 formed (pH 7.4, 69 hr): 32 Mol. % | Mol. % of Decomposition Products (pH 7.4, 69 hr): 23 Mol. % | Mol. % of Dox Released (pH 7.4, 69 hr): 27 Mol. % | Mol. % of DMA 8 (pH 7.4, 94 hr): 16 Mol. % | Mol. % of DMI 7 formed (pH 7.4, 94 hr): 30 Mol. % | Mol. % of Decomposition Products (pH 7.4, 94 hr): 23 Mol. % | Mol. % of Dox Released (pH 7.4, 94 hr): 31 Mol. % | Mol. % of DMA 8 (pH 7.4, 123 hr): 11 Mol. % | Mol. % of DMI 7 formed (pH 7.4, 123 hr): 27 Mol. % | Mol. % of Decomposition Products (pH 7.4, 123 hr): 39 Mol. % | Mol. % of Dox Released (pH 7.4, 123 hr): 23 Mol. % | Mol. % of DMA 8 (pH 7.4, 144 hr): 10 Mol. % | Mol. % of DMI 7 formed (pH 7.4, 144 hr): 27 Mol. % | Mol. % of Decomposition Products (pH 7.4, 144 hr): 40 Mol. % | Mol. % of Dox Released (pH 7.4, 144 hr): 23 Mol. %
Substance: Doxorubicin Disubstituted Maleamic Acid Glutathione Conjugate [Dox-DMA-GSH 8]

Where two headings read alike, the source gives them in different places.
